# Data from US8959984B2, “Proteome-wide quantification of small molecule binding to cellular target proteins” (priority 2007, dated 2015).
# pKi: −log10 of the molar value.
# Legend:
# [1] = biological target: cellular target proteins in HeLa cell lysate (Homo sapiens, UniProt Q9P1W9); test: Ki determination for immobilized VI16742: two consecutive incubations, control beads, ligand concentration and incubation time controls (Tables 7, 8); type: binding; settings: Ki (VI16742), PIM2 IPI00332692
# [2] = biological target: cellular target proteins in HeLa cell lysate (Homo sapiens, UniProt P54619); test: as above; type: binding; settings: Ki (VI16742), PRKAG1 IPI00413318
# [3] = biological target: cellular target proteins in HeLa cell lysate (Homo sapiens, UniProt P67870); test: as above; type: binding; settings: Ki (VI16742), CSNK2B IPI00640088
# [4] = biological target: cellular target proteins in HeLa cell lysate (Homo sapiens, UniProt P07948); test: as above; type: binding; settings: Ki (VI16742), LYN IPI00872474
# [5] = biological target: cellular target proteins in HeLa cell lysate (Homo sapiens, UniProt Q9Y233); test: as above; type: binding; settings: Ki (VI16742), PDE10A IPI00215786
# [6] = biological target: cellular target proteins in HeLa cell lysate (Homo sapiens, UniProt P49840); test: as above; type: binding; settings: Ki (VI16742), GSK3A IPI00292228
# [7] = biological target: cellular target proteins in HeLa cell lysate (Homo sapiens, UniProt O75460); test: as above; type: binding; settings: Ki (VI16742), IRE1 IPI00873141
# [8] = biological target: cellular target proteins in HeLa cell lysate (Homo sapiens, UniProt P00519); test: as above; type: binding; settings: Ki (VI16742), ABL (ABL1) IPI00221171
# [9] = biological target: T1, cellular target proteins in HeLa cell lysate (Homo sapiens, UniProt O94806); test: as above; type: binding; settings: Ki (VI16742), PKD3 (PRKD3) IPI00015538
# T1 sequence (O94806 1-890): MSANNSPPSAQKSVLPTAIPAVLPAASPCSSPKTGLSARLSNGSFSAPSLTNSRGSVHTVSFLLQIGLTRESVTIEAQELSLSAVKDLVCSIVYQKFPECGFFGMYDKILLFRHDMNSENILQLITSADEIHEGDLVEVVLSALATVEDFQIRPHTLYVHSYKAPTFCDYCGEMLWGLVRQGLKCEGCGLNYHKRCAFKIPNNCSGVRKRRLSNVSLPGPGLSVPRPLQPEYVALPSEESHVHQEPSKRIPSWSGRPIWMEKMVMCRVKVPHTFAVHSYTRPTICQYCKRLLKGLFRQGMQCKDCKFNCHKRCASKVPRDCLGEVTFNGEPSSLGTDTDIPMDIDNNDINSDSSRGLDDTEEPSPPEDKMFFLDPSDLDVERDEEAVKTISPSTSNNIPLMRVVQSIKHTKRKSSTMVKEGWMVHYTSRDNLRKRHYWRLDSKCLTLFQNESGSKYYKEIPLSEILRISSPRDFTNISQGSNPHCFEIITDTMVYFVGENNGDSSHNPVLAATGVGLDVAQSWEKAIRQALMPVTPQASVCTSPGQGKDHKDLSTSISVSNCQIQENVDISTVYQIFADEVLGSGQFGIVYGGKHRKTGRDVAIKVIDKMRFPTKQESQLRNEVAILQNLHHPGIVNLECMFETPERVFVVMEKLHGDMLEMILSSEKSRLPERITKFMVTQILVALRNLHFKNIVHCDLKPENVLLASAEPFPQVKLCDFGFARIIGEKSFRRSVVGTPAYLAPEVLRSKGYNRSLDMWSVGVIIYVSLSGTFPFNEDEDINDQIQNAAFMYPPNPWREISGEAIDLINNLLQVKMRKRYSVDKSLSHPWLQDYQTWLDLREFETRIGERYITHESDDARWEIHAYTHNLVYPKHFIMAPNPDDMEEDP
# [10] = biological target: cellular target proteins in HeLa cell lysate (Homo sapiens, UniProt P28482); test: as above; type: binding; settings: Ki (VI16742), Erk2 (MAPK1) IPI00003479
# [11] = biological target: T2, FRAP (FRAP1, IPI00031410) (Homo sapiens, UniProt P42345); test: binding to VI16742 beads (HeLa lysate, SILAC MS)
# T2 construct: endogenous in cells; host or cells: HeLa S3 cell lysate
smiles,measurement,setting,value
CC(C)n1c(=O)ccc2cnc(Nc3ccc(OCCN)cc3)nc21 [V16742],pKi,[1],4.31
same,pKi,[2],4.75
same,pKi,[3],4.96
same,pKi,[4],4.34
same,pKi,[5],5.59
same,pKi,[6],4.90
same,pKi,[7],4.18
same,pKi,[8],4.14
same,pKi,[9],5.40
same,pKi,[10],4.63
same,rAVERAGE (CTRL/1 INC),[11]; control beads vs first incubation,0.10
same,pKi,[11]; immobilized VI16742,4.04
same,rAVERAGE (2 INC/1 INC),[11]; second vs first incubation,0.64
